Laboratory results reported in paper PMC8712509 (International Journal of Nanomedicine, 2021).

System: SGC-7901 tumor
Assay: In vivo antitumor activity
Parameters: species or system BALB/c nude mice
Conditions: 2.5 mg OXA/kg iv every 2 days, tumor-bearing mice, among groups

For O=C1[O][Pt]2([NH][C@@H]3CCCC[C@H]3[NH]2)[O]C1=O (relative stereo) [OXA, (1R-trans)-(1,2-cyclohexanediamine-N,N’)[oxalic acid (2-)-O,O’] platinum], the “organ coefficients (heart, liver, spleen, lungs, kidneys)” value was “no significant differences”.
